Marks after values point to notes of the source that are not given here.
Key:
human A3 receptor = human A3 receptor (Homo sapiens, UniProt P0DMS8); experiment: Functional cAMP assay in CHO-A3 cells; type: cell-based
[1] = target: human A3 adenosine receptor (Homo sapiens, UniProt P0DMS8); details: read-out: Ki, A3 AR; USEF; HeLa-A3 membranes; 10 nM [3H]-NECA
[2] = target: human A1 adenosine receptor (Homo sapiens, UniProt P30542); details: 10 μM compound; USEF; CHO-A1 membranes; 1 nM [3H]-DPCPX

Chains of the proteins cited; added tags and fusions are not shown.
UniProt P0DMS8, whole entry: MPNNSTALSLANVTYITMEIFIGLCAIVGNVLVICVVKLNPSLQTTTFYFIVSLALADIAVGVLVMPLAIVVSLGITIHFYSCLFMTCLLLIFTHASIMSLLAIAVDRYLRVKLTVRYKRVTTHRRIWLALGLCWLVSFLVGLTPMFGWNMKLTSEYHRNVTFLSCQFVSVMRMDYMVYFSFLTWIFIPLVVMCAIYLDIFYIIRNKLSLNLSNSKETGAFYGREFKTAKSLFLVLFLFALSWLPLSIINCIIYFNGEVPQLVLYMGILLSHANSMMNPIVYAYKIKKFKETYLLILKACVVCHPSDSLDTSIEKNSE
UniProt P30542, whole entry: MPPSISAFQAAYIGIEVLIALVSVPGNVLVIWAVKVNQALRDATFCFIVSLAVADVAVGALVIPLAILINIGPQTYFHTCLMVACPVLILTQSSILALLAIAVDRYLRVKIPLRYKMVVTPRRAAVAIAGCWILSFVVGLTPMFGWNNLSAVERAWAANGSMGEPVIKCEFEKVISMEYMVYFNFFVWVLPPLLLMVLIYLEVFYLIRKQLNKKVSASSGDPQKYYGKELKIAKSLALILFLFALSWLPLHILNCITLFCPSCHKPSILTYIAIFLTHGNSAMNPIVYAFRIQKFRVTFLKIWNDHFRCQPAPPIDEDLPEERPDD

Substance: N^6-[3-(1,12-dicarba-closo-dodecaboran-1-yl)propyl]-2-chloroadenosine [Compound 23]
- KB (antagonist mode; functional character at A3) (human A3 receptor; inhibition of NECA (0.1 μM) effect on cAMP): no antagonist
- % Emax (human A3 receptor; maximal agonist effect): 104%
- EC50 (human A3 receptor; read-out: EC50 (cAMP), agonist mode): 3.76 µM
- Ki [1]: 2.2 µM
- percent of inhibition, A1 AR [2]: 38 ± 2 %^a

From article PMC8448983 (European journal of medicinal chemistry, 2021)
